Earlier results on 1 substance are cited in PMC3211136.

Chains of the proteins cited; added tags and fusions are not shown. Residues count along the entry.
UniProt Q71F23, whole entry, looked up, tested part not stated: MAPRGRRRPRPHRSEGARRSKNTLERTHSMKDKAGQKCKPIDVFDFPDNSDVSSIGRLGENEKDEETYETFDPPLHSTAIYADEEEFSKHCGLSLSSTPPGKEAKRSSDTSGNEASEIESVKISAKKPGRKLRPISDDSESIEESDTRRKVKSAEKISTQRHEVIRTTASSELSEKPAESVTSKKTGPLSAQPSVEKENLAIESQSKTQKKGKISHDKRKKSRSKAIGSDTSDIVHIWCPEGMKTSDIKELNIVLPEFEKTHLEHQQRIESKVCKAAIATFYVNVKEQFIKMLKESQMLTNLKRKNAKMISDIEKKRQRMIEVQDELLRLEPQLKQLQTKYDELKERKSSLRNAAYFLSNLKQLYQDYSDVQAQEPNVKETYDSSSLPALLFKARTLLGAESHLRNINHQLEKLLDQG
UniProt P53350, 367-603: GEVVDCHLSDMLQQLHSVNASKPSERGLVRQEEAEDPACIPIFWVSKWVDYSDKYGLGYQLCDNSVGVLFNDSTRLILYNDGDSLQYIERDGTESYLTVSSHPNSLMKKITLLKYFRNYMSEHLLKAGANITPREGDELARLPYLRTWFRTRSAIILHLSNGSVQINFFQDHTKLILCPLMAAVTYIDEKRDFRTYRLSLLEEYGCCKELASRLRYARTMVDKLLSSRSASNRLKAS

pKd: −log10 of the molar value.

In the series the target is PBIP1 peptide (Homo sapiens) (UniProt Q71F23).

Broadly, the pKd is the Kd on a negative log10 scale, so that one unit is a factor of ten. Turning to Plk1 PBD (from UniProt P53350), the pKd was 6.35.
